Columns and labels:
[1] = target: hA2a (Homo sapiens (Human), UniProt P29274); assay: Radioligand binding to hA2a membrane with [3H]-CGS21680; conditions: read-out: Binding Affinity (IC50 nM) hA2a
Excerpt: (§1) The empty boxes in the tables below indicate data not collected yet.

Chains of the proteins cited; added tags and fusions are not shown. Lines headed by an entry give the natural chain unless they say otherwise; changes in a name come on top.
UniProt P29275: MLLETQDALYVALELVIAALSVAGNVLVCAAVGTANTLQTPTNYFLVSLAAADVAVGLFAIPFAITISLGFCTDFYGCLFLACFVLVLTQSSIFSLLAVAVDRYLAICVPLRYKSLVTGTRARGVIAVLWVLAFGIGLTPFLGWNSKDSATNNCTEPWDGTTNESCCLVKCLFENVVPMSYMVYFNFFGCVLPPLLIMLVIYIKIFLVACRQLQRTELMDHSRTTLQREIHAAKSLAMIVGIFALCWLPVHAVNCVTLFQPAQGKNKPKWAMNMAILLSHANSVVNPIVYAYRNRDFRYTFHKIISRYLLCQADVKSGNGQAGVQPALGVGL

[2] = target: hA2b (Homo sapiens (Human), UniProt P29275); assay: Radioligand binding to hA2b membrane with [3H]-DPCPX; conditions: read-out: Binding Affinity (IC50 nM) hA2b
Excerpt: as §1

Q: What does the source list for `Cc1cc(-c2nc(C(=O)NCc3ccccc3OC(F)(F)F)c(N)nc2-c2ccc(F)cc2)cc(C)n1` [Example 65, 3-amino-6-(2,6-dimethylpyridin-4-yl)-5-(4-fluorophenyl)-N-(2-(trifluoromethoxy)benzyl)pyrazine-2-carboxamide]?
A: IC50 [1]: 13 nM; IC50 [2]: 4420 nM
